Measured values published in patent publication US20170129926A1.

What was measured:
[1] = biological target: human IL-6 (human) (UniProt P05231); assay: SPR (ProteOn), polypeptide immobilized, rhIL-6 analyte, mean of three
[2] = biological target: TNF (human) (UniProt P01375); assay: ELISA, TNF coated, anti-human IgG Fc-HRP detection
[3] = biological target: human IL-6 (human) (UniProt P05231); assay: ELISA, IL-6 coated, anti-human IgG Fc-HRP detection

| Kd [1] [nM] | EC50 [2] [nM] | EC50 [3] [nM] | Substance |
| --- | --- | --- | --- |
| 0.93 |  |  | LCAda-Z06814 (bispecific antibody; other documents disagree on this pair) |
|  | 0.12 | 0.95 | Z14976-(GGGGS)3-LCAda (bispecific antibody; other documents disagree on this pair) |
| 0.72 |  |  | Z06814-HCAda (bispecific antibody; other documents disagree on this pair) |
|  | 0.094 | 0.56 | Z14976-(GGGGS)-LCAda (bispecific antibody; other documents disagree on this pair) |
